Results from PMC12069643, “Structural insights into the selective recognition of RF-amide peptides by neuropeptide FF receptor 2” (EMBO Reports, 2025).

Chains of the proteins cited; added tags and fusions are not shown. Lines headed by an entry give the natural chain unless they say otherwise; changes in a name come on top.
UniProt Q9GZQ6: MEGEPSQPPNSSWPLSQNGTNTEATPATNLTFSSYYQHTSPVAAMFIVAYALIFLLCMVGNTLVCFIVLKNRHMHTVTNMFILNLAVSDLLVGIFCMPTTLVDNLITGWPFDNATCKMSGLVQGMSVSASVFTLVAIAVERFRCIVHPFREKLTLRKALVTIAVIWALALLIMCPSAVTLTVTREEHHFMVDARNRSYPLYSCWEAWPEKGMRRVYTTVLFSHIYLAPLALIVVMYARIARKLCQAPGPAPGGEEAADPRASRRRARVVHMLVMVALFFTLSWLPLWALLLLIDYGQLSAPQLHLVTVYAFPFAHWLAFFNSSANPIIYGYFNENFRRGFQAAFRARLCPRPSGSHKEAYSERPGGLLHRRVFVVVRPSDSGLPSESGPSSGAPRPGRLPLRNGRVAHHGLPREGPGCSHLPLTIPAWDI

Biological target: T1, human NPFFR1 (Homo sapiens, UniProt Q9GZQ6)
T1 construct: expressed in transfected cells; host or cells: HEK293T (pcDNA3.1 NPFFR1)
Assay: GloSensor forskolin-stimulated cAMP assay, NPFFR1 wild-type
Format: cell-based
Details: HEK293T, 0.5 μM forskolin, three independent experiments

EC50: 2 nM
SMILES: CC(C)C[C@H](NC(=O)[C@H](CC(N)=O)NC(=O)[C@@H]1CCCN1C(=O)[C@@H](N)C(C)C)C(=O)N1CCC[C@H]1C(=O)N[C@@H](CCC(N)=O)C(=O)N[C@@H](CCCNC(=N)N)C(=O)N[C@@H](Cc1ccccc1)C(N)=O [NPVF]
